Bioassay records as filed in PubChem.
This is a sample that favours compounds with a hit; in the whole collection about 2.8% have one here.
esBAF inh – Bmi1 luciferase reporter increase in mESCs, primary screen, esBAF inhibitor project, mouse ES cells, Bmi1 luciferase knock-in, single point | 24 h; 100% = twice the neutral-well signal | reporter increase, % at 12.5 µM | actives 2% (n = 350,000) | AID 602393, 2012; in the data active = activation above about 40%; inconclusive = no clear call, values can overlap the other calls;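 also: 0% = median of the plate's neutral control wells and 100% = double that signal; a rise in the Bmi1 reporter signal indicates esBAF inhibition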
C2C12 statin – suppressors of statin myotoxicity in C2C12 myotubes, primary screen, cell-based, single point, plate reader | C2C12 myotubes + simvastatin, ATP luminescence, 48 h; scaled: DMSO 0, geranylgeraniol control 100 | rescue of ATP level, % at 7.49 µM | actives 0.78% (n = 330,000) | AID 602340, 2012;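 active = mean ATP rescue above about 67%, or every replicate alone reaching that limit, limit read from the data, passing the limit was not always enough; inconclusive = no clear call, values can overlap the other calls; inactive = mean under the limit and some replicate under it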;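 also: myotubes were challenged with 10 µM simvastatin during compound exposure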
Yeast UUG start – modulators of start codon recognition fidelity in yeast; S. cerevisiae UUG-firefly luciferase reporter, luminescence/redox ratio; activity score, % at 18.7 µM; hit rate 0.13% among 350,000; AID 602363;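 active = replicate mean at a twofold rise or more, about +100% in these data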;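 note: firefly luciferase made from a UUG start codon reports start codon fidelity; reporter light over untreated wells divided by growth signal over untreated wells; some hits fall short of that in this replicate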
PGC1a acetyl inh – inhibitors of PGC1a acetylation signal, primary screen, cell-based, U2OS, AlphaScreen, inhibitor mode. AlphaScreen anti-acetyl-lysine; with virally co-expressed GCN5 acetyltransferase. inhibition, % at 15.6 µM. actives 0.17% (n = 350,000);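 active = every replicate shows inhibition of at least 40%; inconclusive = mean inhibition at least 40% but some replicate below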;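 also: 0% = neutral control wells and 100% = positive control wells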
E-selectin induc – E-selectin induction in HUVECs, primary screen, imaging, HUVEC, immunofluorescence imaging, single point; activation, % at 7.58 µM; normalized: neutral wells 0, TNF-alpha wells 100; P16581; actives 0.37% (n = 260,000); AID 686992, 2013;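 active = mean E-selectin-positive cell signal at least 10% of the positive control, reached in at least 60% of replicates, without over 20% cell loss; inconclusive = no rule given, readout overlaps actives, possibly toxicity-flagged; inactive = the rest, including those meeting only one limit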
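System: HUVEC, human umbilical vein endothelial cells; quantity: 3,000 cells/well; buffer or medium: EGM-2 medium, gelatin-coated wells; dosing: single-point compound dose; detection: immunofluorescence imaging; evaluation: % PE-positive cells; benchmarks: TNF-alpha, DMSO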
PglD inh – C. jejuni PglD acetyltransferase inhibitors, primary screen, biochemical, DTNB colorimetric, single point | inhibition, % at 12.5 µM | purified PglD enzyme, DTNB colorimetric CoA detection | actives 0.098% (n = 360,000) | AID 602405, 2012; in the data active = inhibition above about 16%, passing the limit was not always enough; inconclusive = no clear call, values can overlap the other calls
Starred values were filed as active, the others as inactive; u = inconclusive; x = no result.

SMILES	esBAF inh	C2C12 statin	Yeast UUG start	PGC1a acetyl inh	E-selectin induc	PglD inh
CCOc1ccccc1C(=O)N1CCN(c2cccc(Cl)c2)CC1	-3	-136	15	5	x	-2
COc1ccc(NC(=O)Nc2ccc3c(c2)CC(=O)N([C@H](C)CO)C[C@@H](C)[C@H](CN(C)Cc2ccc(C(=O)Nc4ccccc4N)cc2)O3)cc1	x	x	x	-4	x	x
C[C@@H]1CN([C@@H](C)CO)S(=O)(=O)c2ccc(-c3ccncc3)cc2O[C@H]1CN(C)C(=O)C1CCC1	x	-18	x	-1	1	x
C[C@H]1CN([C@@H](C)CO)C(=O)c2cc(C#CC(C)(C)O)cnc2O[C@@H]1CN(C)C(=O)C1CCC1	-1	3	-4	101*	0	0
COCC#Cc1cnc2c(c1)C(=O)N([C@@H](C)CO)C[C@H](C)[C@@H](CN(C)C(=O)C1CCC1)O2	-12	8	36	-3	0	20*
COc1ccc(S(=O)(=O)Nc2ccc3c(c2)OC[C@H](C)NC[C@H](C)[C@@H](OC)CN(C)C3=O)cc1	x	x	x	-1	0	x
C[C@]12CCC3C4(C=CC5(C=C4C(=O)c4ccc(F)c(F)c4)C[C@@H](O)CC[C@]35C)C1CC[C@@]2(O)CN1CCC(C(N)=O)CC1 (some centres not stated)	x	x	-4	-4	x	0
CCC(=O)Nc1ccc2c(c1)OC[C@H](C)N(C(=O)C1CC1)C[C@H](C)[C@@H](OC)CN(C)C2=O	-1	12	-2	6	0	1
Cc1ccc(S(=O)(=O)N2Cc3ccccc3CC2C(=O)Nc2ccc3c(c2)OCO3)cc1 (configuration not stated)	66*	2	-7	-36	x	1
COc1ccc(N/C(C)=C/C(=O)c2ccccc2)cc1	x	x	-20	2	-2	-1
COc1ccc(S(=O)(=O)N2Cc3ccccc3CC2C(=O)Nc2ccc3c(c2)OCO3)cc1 (configuration not stated)	59*	10	-22	-17	x	-5
COc1ccc(C(=O)/C=C(\C)Nc2ccc3c(c2)OCO3)cc1	62*	1	2	4	-2	4
Cc1ccc(S(=O)(=O)Nc2ccc3c(c2)C(=O)N([C@H](C)CO)C[C@H](C)[C@H](CN(C)C(=O)Nc2ccccc2)O3)cc1	-1	10	-16	5	26	x
Cc1cc(C)cc(C(=O)Nc2cccnc2Cl)c1	-5	-1	-3	x	x	2
Cc1ccc(C(=O)Nc2cccnc2Cl)cc1Cl	54*	-3	-14	-31	0	4
COC(=O)c1sccc1-c1ccc(C(=O)Nc2ccccc2)o1	74*	4	0	-5	x	-88
CC(=C/c1ccco1)/C=N/N1CCN(c2ccccc2)CC1	49*	-45	-21	19	x	x
COc1ccc(S(=O)(=O)Nc2ccc3c(c2)C(=O)N(C)C[C@@H](OC)[C@@H](C)CN[C@H](C)CO3)cc1	-4	-6	0	2	0	-2
CN(C)C(=O)C[C@H]1CC[C@H]2[C@@H](COC[C@@H](O)CN2CC2CC2)O1	-4	-8	x	2	0	-2
CC(=O)c1ccc(NC(=O)C2(c3ccccc3)CCOCC2)cc1	55*	-37	5	-6	x	1

Three structures from above, arranged by SMILES length, largest number first.
SMILES	esBAF inh	C2C12 statin	Yeast UUG start	PGC1a acetyl inh	E-selectin induc	PglD inh
Cc1ccc(S(=O)(=O)Nc2ccc3c(c2)C(=O)N([C@H](C)CO)C[C@H](C)[C@H](CN(C)C(=O)Nc2ccccc2)O3)cc1	-1	10	-16	5	26	x
C[C@H]1CN([C@@H](C)CO)C(=O)c2cc(C#CC(C)(C)O)cnc2O[C@@H]1CN(C)C(=O)C1CCC1	-1	3	-4	101*	0	0
CC(=C/c1ccco1)/C=N/N1CCN(c2ccccc2)CC1	49*	-45	-21	19	x	x

(list continues)
SMILES	esBAF inh	C2C12 statin	Yeast UUG start	PGC1a acetyl inh	E-selectin induc	PglD inh
O=C(O)CC1C(=O)NCCN1Cc1cccs1 (configuration not stated)	x	x	x	x	85*	x
CCOC(=O)CC1C(=O)NCCN1Cc1cccs1 (configuration not stated)	-2	1	-6	x	0	6
Cc1ccc(N2CCN(/N=C/c3sccc3C)CC2)cc1	22	140*	-25	2	x	-2
Cc1ccsc1/C=N/N1CCOCC1	x	x	x	x	0	x
CO[C@H]1CN(C)C(=O)c2cc(C#N)ccc2OCC[C@H]2CC[C@@H](OC)[C@@H](CN(C)C(=O)[C@@H]1C)O2	6	-23	x	x	0	-1
CC1(C)CC(=O)C(/C=N/c2ccccn2)=C(O)C1	-6	-5	4	1	x	6
CC1(C)CC(=O)C(/C=N/n2cnc3ccccc3c2=O)=C(O)C1	49*	4	-9	13	x	-1
COCCn1cnc2cc(C)c(C)cc21	1	18	-20	0	x	2
Cc1cc2ncn(CCOc3ccccc3)c2cc1C	83*	3	-24	4	x	-2
COc1ccc2c3c([nH]c2c1)[C@@H](CO)N(Cc1ccc(F)cc1)CC31CN(C(=O)NC(C)C)C1	x	x	x	0	-1	x
CCOc1ccc(NC(=S)NC(C)C(c2ccccc2)N2CCN(C)CC2)cc1 (configuration not stated)	x	x	x	-6	x	x
CC(NC(=O)COc1ccccc1)C(c1ccccc1)N1CCN(C)CC1 (configuration not stated)	-1	90*	-7	x	x	3
COc1cc(OC)cc(-c2cc(NC(C)=O)n[nH]2)c1	2	-10	-22	1	8	4
CC(=O)Nc1cc(-c2ccc(Cl)cc2)[nH]n1	74*	8	-12	x	0	-2
O=C(Nc1ccc(F)c(Cl)c1)c1ccccc1	70*	-2	-29	6	23	6
Fc1ccc(NC(=S)Nc2cc(-c3ccccc3)[nH]n2)cc1Cl	3	-7	-38	-4	30*	1
O=C(Nc1ccc(F)c(Cl)c1)c1cccnc1	10	0	-5	-1	x	0
CC(=O)Nc1ccccc1C(=O)C(=O)Nc1ccc(F)c(Cl)c1	56*	33	-34	4	x	3
O=C(C[C@H]1C=C[C@H](NC(=O)C2CCOCC2)[C@@H](CO)O1)Nc1ccc(-c2ccccc2)cc1	8	-10	-9	-3	1	0
O=C(c1ccccn1)N1C[C@@H]2[C@H](c3ccccc31)[C@@H](CO)N2C(=O)c1ccccn1	-2	-4	-9	12	0	0

Overlap with the part before: 3 compounds, then new ones.
SMILES	esBAF inh	C2C12 statin	Yeast UUG start	PGC1a acetyl inh	E-selectin induc	PglD inh
CC(=O)Nc1ccccc1C(=O)C(=O)Nc1ccc(F)c(Cl)c1	56*	33	-34	4	x	3
O=C(C[C@H]1C=C[C@H](NC(=O)C2CCOCC2)[C@@H](CO)O1)Nc1ccc(-c2ccccc2)cc1	8	-10	-9	-3	1	0
O=C(c1ccccn1)N1C[C@@H]2[C@H](c3ccccc31)[C@@H](CO)N2C(=O)c1ccccn1	-2	-4	-9	12	0	0
COc1ccc(NC(=O)c2ccc3c(c2)OCO3)cc1Cl	x	x	-1	u	x	-1
Cc1ccc(NC(=O)c2onc(C)c2Cl)cc1	2	-14	-16	-1	0	-5
CCn1cc(Br)c(C(=O)Nc2ccc(F)c(Cl)c2)n1	58*	x	19	x	x	3
O=C(Nc1ccc(F)c(Cl)c1)c1ccc2c(c1)OCO2	55*	7	-22	x	1	3
Cc1noc(C(=O)Nc2ccc(F)c(Cl)c2)c1Cl	49*	8	-20	x	0	-4
Cc1ccccc1-c1ccc(C2[C@H]3CNC[C@@H]2N3S(=O)(=O)c2ccc(Cl)cc2)cc1 (some centres not stated)	x	x	x	-4	0	x
